{
  "source": "paper PMC6925656",
  "about": "(Clinical pharmacology and therapeutics, 2019)",
  "system": "Oct1",
  "test": "Pharmacokinetics in Oct1-deficient versus wild-type mice",
  "details": "sorafenib 10 mg/kg oral, 7.5 h",
  "data": [
    {"substance": "sorafenib-glucuronide", "values": [
      {"measurement": "Liver concentrations, Oct1-deficient vs wild-type mice", "value": "no significant differences"},
      {"measurement": "Liver-to-plasma ratio, Oct1-deficient vs wild-type mice", "value": "no significant differences"}
    ]}
  ]
}
